Experimental data: patent publication US6727276B2, “Epothilone derivatives for the treatment of refractory tumors” (Bristol-Myers Squibb Company, priority 2001, dated 2004)

Columns and labels:
[1] = test system: A2780Tax ovarian carcinoma xenograft (mutated tubulin); test: In vivo antitumor testing, A2780Tax xenograft; set-up: species or system nude mice; conditions: BMS-310705; IV, q4dx3; Expt. 13
HCT116/VM46 cells = test: Cytotoxicity assay, multi-drug resistant colon tumor line; type: cell-based, human; conditions: resistant cell line vs. sensitive HCT 116 cell line
[2] = test system: five human tumor xenografts resistant to paclitaxel; test: Antitumor activity in panel of five paclitaxel-resistant human tumor xenografts; conditions: parenteral administration, five tumor models
Pat-21 breast carcinoma = test: In vivo antitumor testing, Pat-21 xenograft; set-up: species or system nude mice; conditions: BMS-310705; IV, q4dx3;37,66; Expt. 717

C/C(=C\c1csc(CN)n1)[C@@H]1C[C@@H]2O[C@]2(C)CCC[C@H](C)[C@H](O)[C@@H](C)C(=O)C(C)(C)[C@@H](O)CC(=O)O1 (relative stereo) [BMS-310705, [1S-[1R*,3R*(E),7R*,10S*,11R*,12R*,16S*]]-7,11-dihydroxy-8,8,10,12,16-pentamethyl-3-[1-methyl-2-(2-aminomethyl-4-thiazolyl)ethenyl]-4,17-dioxabicyclo[14.1.0]heptadecane-5,9-dione]
OD (optimal dose or maximum tolerated dose) [1]: 10 mg/kg | ratio of concentration (R/S or resistance ratio) to inhibit cell growth by 50% (HCT116/VM46 cells): 12.8 fold | antitumor activity in paclitaxel-resistant tumors (in words) ([2]; listed as subject compound): significantly more active than paclitaxel | antitumor activity in paclitaxel-resistant tumors (in words) ([2]; listed as test compound): clearly demonstrated antitumor activity in all five paclitaxel-resistant tumors | OD (optimal dose or maximum tolerated dose) (Pat-21 breast carcinoma): 9 mg/kg
